Measurements: ChEMBL document CHEMBL3232993, “Design, synthesis, and structure-activity relationship of a novel series of GluN2C-selective potentiators” (J Med Chem, 2014)

Chains of the proteins cited; added tags and fusions are not shown. Lines headed by an entry give the natural chain unless they say otherwise; changes in a name come on top.
UniProt Q00961: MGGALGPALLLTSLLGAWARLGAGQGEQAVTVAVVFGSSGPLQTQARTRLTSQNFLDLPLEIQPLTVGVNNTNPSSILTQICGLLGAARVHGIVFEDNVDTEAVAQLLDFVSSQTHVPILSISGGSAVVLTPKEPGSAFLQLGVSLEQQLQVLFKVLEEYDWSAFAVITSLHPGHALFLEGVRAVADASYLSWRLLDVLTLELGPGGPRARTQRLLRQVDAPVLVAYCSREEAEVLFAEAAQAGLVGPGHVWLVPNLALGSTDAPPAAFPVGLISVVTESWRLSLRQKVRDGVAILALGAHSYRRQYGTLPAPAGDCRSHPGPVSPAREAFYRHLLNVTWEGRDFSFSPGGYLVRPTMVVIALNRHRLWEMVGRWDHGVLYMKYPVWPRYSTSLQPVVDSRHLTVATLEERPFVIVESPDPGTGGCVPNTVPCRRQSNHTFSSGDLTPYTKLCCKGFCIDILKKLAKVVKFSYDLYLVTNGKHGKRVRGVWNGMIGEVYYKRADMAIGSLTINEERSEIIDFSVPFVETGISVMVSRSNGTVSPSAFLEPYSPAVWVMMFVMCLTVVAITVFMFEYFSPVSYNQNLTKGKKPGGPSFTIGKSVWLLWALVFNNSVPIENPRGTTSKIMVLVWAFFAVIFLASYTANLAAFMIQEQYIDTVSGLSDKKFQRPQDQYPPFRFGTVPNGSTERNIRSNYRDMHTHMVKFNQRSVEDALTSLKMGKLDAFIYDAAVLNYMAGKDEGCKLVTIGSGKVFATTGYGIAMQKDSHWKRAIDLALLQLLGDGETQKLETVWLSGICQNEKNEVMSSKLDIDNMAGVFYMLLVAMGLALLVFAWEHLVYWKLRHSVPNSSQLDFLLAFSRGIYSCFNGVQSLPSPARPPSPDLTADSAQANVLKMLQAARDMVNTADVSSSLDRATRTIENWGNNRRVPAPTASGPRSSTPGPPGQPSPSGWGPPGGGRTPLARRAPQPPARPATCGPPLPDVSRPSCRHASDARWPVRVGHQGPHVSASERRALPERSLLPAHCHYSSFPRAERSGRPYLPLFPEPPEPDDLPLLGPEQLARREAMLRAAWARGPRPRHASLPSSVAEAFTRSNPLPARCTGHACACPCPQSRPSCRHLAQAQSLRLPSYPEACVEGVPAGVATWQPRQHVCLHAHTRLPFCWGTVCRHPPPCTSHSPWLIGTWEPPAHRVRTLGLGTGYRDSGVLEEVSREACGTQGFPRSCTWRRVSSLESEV

Target: Glutamate NMDA receptor; Grin1/Grin2c (Rattus norvegicus, UniProt P35439+Q00961)
Assay: Potentiation of rat recombinant GluN1/GluN2C expressed in Xenopus laevis oocytes assessed as increase in glutamate/glycine-induced current response by two-electrode voltage clamp technique relative to control
Format: cell-based
Outline: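 Compounds diluted from 20 mM DMSO stocks (final DMSO 0.05–0.5%) and screened at 30 μM. EC₅₀ and maximum fitted from 5–7 concentrations when response exceeded 120% of control, normalized per oocyte; mean ± SEM.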

COC(=O)c1ccc(C2C(C(C)=O)=C(O)C(=O)N2CCc2c[nH]c3ccccc23)cc1 (stereo unspecified)
EC50: 24 µM
